Assay results: published antibiotic growth screens (doi:10.1038/s41589-023-01349-8)
Some of the results follow.

System: A. baumannii ATCC 17978
Assay: relative growth (fraction of control); higher = less inhibition
Conditions: 50 µM

SMILES	relative growth
O=C(NO)c1cccc(C(=O)N/N=C/[C@H](O)[C@@H](O)[C@@H](O)[C@H](O)C(=O)O)c1	0.936
O=C1CCc2cc(OCCCCc3nnnn3C3CCCCC3)ccc2N1	0.868
CCS(=O)(=O)CCn1c([N+](=O)[O-])cnc1C	0.994
CO[C@@H]1CN(C)C(=O)c2cc(NS(=O)(=O)CC(F)(F)F)ccc2OC[C@H](C)N(C(=O)NC(C)C)C[C@H]1C	1.22
CCN1CCCC(OC(=O)C(c2ccccc2)c2ccccc2)C1.Cl (centres undefined)	1.28
COc1cccc(S(=O)(=O)N(C)C[C@H]2Oc3cc(C#CCC(C)C)ccc3S(=O)(=O)N([C@H](C)CO)C[C@H]2C)c1	1.31
CCC1=C(C)CN(C(=O)NCCc2ccc(S(=O)(=O)NC(=O)N[C@H]3CC[C@H](C)CC3)cc2)C1=O	1.11
CC(C)[Si](C#CCCCC#N)(O[C@H](c1ccccc1)c1cn(Cc2cccc(Cl)c2)nn1)C(C)C	0.919
O=C(C[C@@H]1CC=CC[C@H](NC(=O)OCC2c3ccccc3-c3ccccc32)C(=O)OC[C@H](Cc2ccccc2)NC1=O)N[C@H](CO)Cc1ccccc1	0.894
Cn1c(=O)c2c(ncn2CCNC2=NCCC2)n(C)c1=O	1.16
COCC(=O)Nc1ccc2c(c1)C(=O)N(C)[C@@H]1CC[C@H](CC(=O)NCc3ccc(OC)cc3)O[C@@H]1CO2	1.09
NNC(=O)Cn1nnc(N2CCCC2)n1	1.04
CCC(C)CCCCC(=O)NC(CCN)C(=O)NC(C(=O)NC(CCN)C(=O)NC1CCNC(=O)C(C(C)O)NC(=O)C(CCN)NC(=O)C(CCN)NC(=O)C(CC(C)C)NC(=O)C(Cc2ccccc2)NC(=O)C(CCN)NC1=O)C(C)O.O=S(=O)(O)O (centres undefined)	0.488
COCCNC(=O)C[C@H]1CC[C@@H]2[C@H](COC[C@@H](O)CN2C(=O)Nc2ccccc2OC)O1	1.07
C[C@@H](O)c1ccc2ccccc2c1	0.829
COCC#Cc1ccc2c(c1)O[C@@H](CN(C)C(=O)Nc1ccccc1F)[C@@H](C)CN([C@@H](C)CO)S2(=O)=O	0.996
NCCCN.O=C(O)C(O)C(O)C(=O)O (centres undefined)	0.889
Cc1cc(C)n(-c2nc3c(c(=O)n(CCN4CCOCC4)c(=O)n3C)n2C)n1	1.01
Cc1ccc(S(=O)(=O)N2C[C@H](O)COC[C@H]3O[C@@H](CC(=O)NCc4ccc(Cl)c(Cl)c4)CC[C@@H]32)cc1	1.04
C[C@@H]1CN([C@@H](C)CO)S(=O)(=O)c2ccc(C#C[C@@H](C)O)cc2O[C@@H]1CN(C)C(=O)CN(C)C	1.2
CC(C)CCC[C@@H](C)[C@H]1CC[C@@]2(C)C3=C(CC[C@]12C)[C@@]1(C)CC[C@H](OC(=O)CCl)C(C)(C)[C@@H]1CC3	1.06

SMILES	relative growth
Cc1ccccc1OC[C@@H](O)CO	1.08
Cn1cnc(S(=O)(=O)N2C[C@H](O)COC[C@@H]3O[C@H](CC(=O)N4CCN(c5ccccc5)CC4)CC[C@H]32)c1	0.813
N[C@@H](Cn1ccnc1)c1ccccc1	1.04
CN(C)CCNc1ccc(CN)cc1	1.13
Cc1noc(C)c1NC(=O)N[C@@H]1C=C[C@H](CC(=O)N2CCN(C)CC2)O[C@@H]1CO	1.07
CCOCCOc1ccccc1C(N)=O	1.19
COc1ccc2cc1Oc1ccc(cc1)C[C@H]1c3cc(c(OC)cc3CCN1C)Oc1c(OC)c(OC)cc3c1[C@H](C2)N(C)CC3	0.755
Cc1ccc(S(=O)(=O)N(C)C[C@@H]2Oc3c(NC(=O)Nc4cccc5ccccc45)cccc3C(=O)N([C@@H](C)CO)C[C@H]2C)cc1	0.914
FC(F)(F)c1ccccc1-c1ncc(-c2ccccc2)o1	0.813
NCC[C@H]1CC[C@H](NC(=O)C2CCCC2)[C@@H](CO)O1	1.07
O=C(N[C@@H]1C=C[C@H](CC(=O)N2CCOCC2)O[C@H]1CO)c1ccccn1	1.07
Cc1ccoc1C(=O)NCCN	0.931
O=S1(=O)CO[C@@H](c2ccccc2)CN1	1.08
O=C(C[C@H]1C=C[C@@H](NC(=O)Nc2ccc3c(c2)OCO3)[C@H](CO)O1)NCCCN1CCOCC1	1.07
Cc1ccccc1NC(=O)CC(C)C	0.953
C=CCOc1nc(NCC)nc(N(C)C)n1	0.904
CS(=O)(=O)O.OC(CCN1CCCCC1)(c1ccccc1)c1ccccc1	0.859
COCC(=O)Nc1ccc2c(c1)C(=O)N(C)[C@H]1CC[C@@H](CC(=O)NCc3ccc(OC)cc3)O[C@H]1CO2	0.981
Oc1ccc2c(c1)OCC1(O)Cc3cc(O)c(O)cc3C21 (centres undefined)	1.26
CCCC#Cc1ccc2c(c1)O[C@H](CN(C)Cc1ccc3c(c1)OCO3)[C@@H](C)CN([C@@H](C)CO)S2(=O)=O	1.21
COc1cc(C(=O)NC2CCCNC2)cc(OC)c1OC (centres undefined)	1.02

SMILES	relative growth
COCC#Cc1ccc2c(c1)O[C@@H](CN(C)Cc1ccccc1F)[C@H](C)CN([C@H](C)CO)S2(=O)=O	0.996
CCCNC(=O)N(C)c1nncnc1C(=O)NC	1.08
COc1ccc([C@@H]([C@H](Cc2ccccc2)OC(C)=O)N2C[C@@H](CC(=O)N(C)C)[C@@H]3[C@H]([C@@H]2Cc2ccccc2)N(C)O[C@H]3c2ccccc2)cc1	1.16
CO[C@@H]1CN(C)C(=O)c2ccc(NS(=O)(=O)c3cn(C)cn3)cc2OC[C@H](C)N(CCC(F)(F)F)C[C@@H]1C	0.973
Cc1ccc(OCc2ccc(Cl)cc2)c(C(C)(C)C)c1	0.89
CO[C@H](CN(C)S(=O)(=O)c1cn(C)cn1)[C@H](C)CN(C(=O)Nc1ccc(C(F)(F)F)cc1)[C@H](C)CO	0.968
CC(=O)c1c(O)c(C)c(O)c2c1OC1=CC(=O)C(C(C)=O)C(=O)C12C (centres undefined)	0.911
COCCNC(=O)C[C@H]1CC[C@H](NS(=O)(=O)c2ccc(C)cc2)[C@H](CO)O1	1.05
O=C(C[C@H]1CC[C@@H]2[C@H](COC[C@H](O)CN2C(=O)Nc2cccc(F)c2)O1)NCCCN1CCOCC1	0.899
COc1ccccc1CNC(=O)C[C@@H]1CC[C@H]2[C@@H](COC[C@@H](O)CN2C(=O)Nc2ccc(Cl)cc2)O1	0.939
O=C1[O][Bi]([OH])[O]c2ccccc21	0.956
CC(=O)N(C)CP(=O)(O)CN1CCCC1=O	0.959
C[C@H](CO)N1C[C@H](C)[C@H](CN(C)CC2CC2)Oc2cc(C#Cc3ccc(F)cc3)ccc2S1(=O)=O	0.805
C[C@@H]1CN([C@H](C)CO)S(=O)(=O)c2ccc(C#Cc3ccccc3F)cc2O[C@@H]1CN(C)C(=O)Cc1cccnc1	0.884
CCn1c2c(c3cc(C4CCCCC4)ccc31)CCCC2=O	1
COc1cccc(-c2ccc3c(c2)O[C@H](CN(C)C(=O)C2CCC2)[C@@H](C)CN([C@H](C)CO)S3(=O)=O)c1	0.663
COc1ccc(S(=O)(=O)Nc2ccc3c(c2)[C@@H]2C[C@H](CC(=O)NCC4CC4)O[C@H](CO)[C@@H]2O3)cc1	1.05
CC(C)CCCC(C)C1CCC2C3CC(=O)[C@H]4C[C@@H](O)CC[C@]4(C)C3CC[C@]12C (stereo partly drawn) [5alpha-CHOLESTAN-3beta-OL-6-ONE]	1.01
C=CCN1C(=O)[C@@]2(O[C@@H](CCn3cc([C@H](O)c4ccccc4)nn3)[C@H]([Si](C)(C)c3ccc(OC)cc3)[C@H]2C)c2ccccc21	1.22
C/C=C1\[C@@H](O[C@H]2O[C@@H](CO)[C@@H](O)[C@@H](O)[C@@H]2O)OC=C(C(=O)OC)[C@H]1CC(=O)OC[C@H]1[C@H](C)[C@H](OC(=O)C[C@@H]2C(C(=O)OC)=CO[C@H](O[C@H]3O[C@@H](CO)[C@@H](O)[C@@H](O)[C@@H]3O)/C2=C\C)C[C@@H]1[C@H](CO)COC(=O)C[C@@H]1C(C(=O)OC)=CO[C@@H](O[C@H]2O[C@@H](CO)[C@@H](O)[C@@H](O)[C@@H]2O)/C1=C\C	1.03
Cc1cc(O)c2c(c1)Cc1cccc(O)c1C2=O	0.898

SMILES	relative growth
COC(=O)c1cc(-c2ccccc2)oc1CN	0.889
N[C@]12CC[C@](C(=O)O)(CC1)C2	1.02
O=C(C1CC1)N1CCN(c2ncccn2)CC1	0.925
COc1ccc(S(=O)(=O)N(C)C)cc1	0.874
O=C1OC2(c3ccc(O)cc3Oc3cc(O)ccc32)c2ccccc21	1.01
COc1ccc(S(=O)(=O)N2C[C@@H](O)COC[C@@H]3O[C@H](CC(=O)NCCCN4CCOCC4)CC[C@H]32)cc1	1.1
O=C([O-])[C@H](O)[C@@H](O)[C@H](O)[C@H](O)CO.[Na+]	1.15
Cc1ccc(Nc2nnc(-c3ccccc3)c3ccccc23)cc1	1.02
O=C(O)CCC(=O)Nc1ccc(S(=O)(=O)Nc2nccs2)cc1	0.885
CCCC(=O)Nc1ccc2c(c1)C(=O)N(C)C[C@@H](OC)[C@@H](C)CN(Cc1ccc(-c3ccccn3)cc1)[C@@H](C)CO2	1.09
C[C@@H]1CN([C@@H](C)CO)S(=O)(=O)c2ccc(C#CC3CC3)cc2O[C@H]1CN(C)C(=O)C1CCCCC1	0.782
COc1cnc(NS(=O)(=O)c2ccc(N)cc2)nc1	1.02
O=NN(CCCl)C(=O)NC1CCCCC1	1.28
O=C(C[C@H]1CC[C@H]2[C@@H](COC[C@@H](O)CN2S(=O)(=O)c2cccc(Cl)c2)O1)NCc1ccncn1	1.21
O=C(C1=C[C@H](c2ccc(C(F)(F)F)cc2)C[C@H](OCc2ccc(CO)cc2)O1)N1CCN(Cc2ccccc2)CC1	0.938
O=C1[C@H]2[C@H](O)CS[C@H]2C(=O)N1c1ccccc1	0.873
CC(CO)(CO)NC(=O)NC1CCCCC1	1.25
COC[C@@H]1CN(C(=O)c2cscn2)N1C	1.02
COc1ccccc1O	0.939
O=C(C[C@H]1C=C[C@@H](NC(=O)CN2CCOCC2)[C@H](CO)O1)NC1CCC1	0.951
CCOC(=O)C1=C[C@]2(CC)CCCN3CCc4c(n1c1ccccc41)[C@@H]32	1.06
